# Test results taken from patent US11000516B2, “Dosing regimens of celgosivir for the prevention of dengue” (priority 2015, dated 2021).
# Tests used:
# [1] = tested on: clinical DENV strains from CELADEN trial patients (8 DENV1, 8 DENV2); test: 16 clinical DENV strains from CELADEN patients in HuH-7 cells, sensitivity versus control strains; format: cell-based
# Description: (A) Total 16 clinical DENV strains from CELADEN trial (8 from either DENV1 or DENV2 infected patients) were used for infection in HuH-7 cells in the absence or presence of celgosivir at the concentration of 3 μM. EDEN1, EDEN2 and S221 were used as control virus strains. The MOI of each strain was indicated in supplementary FIG. 2. After 48 hours pi, virus titer in the supernatants was determined by standard plaque assay using BHK-21 cells. The percentages of virus titer were calculated based on virus infection control of each strain. Error bars indicate standard deviations from duplicate experiments. (B and C) Mice were inoculated i.v. with DENV2 strains, #031 (2×10^7 pfu), #013 (1×10^7 pfu) or #036 (2×10^7 pfu). […] Average viral copy numbers on day 1-2 were measured using mixed serum of each group. Viral copy number on day 3 was measured individually and the graphs show the average results with standard deviations. […] Viral copy number on day 3-6 was measured individually and shown in the graphs as the average results with standard deviations. […]
# Total 16 clinical DENV virus were recovered from serum of CELADEN trial patients with 8 of either DENV1 or DENV2 infection. […] After 48 hours post-infection, virus titer in the supernatants was determined by standard plaque assay using BHK-21 cells. […]
# EDEN1 = test: Lethal ADE infection model in AG129 mice (4G2 Ab pre-injection); format: in vivo; conditions: EDEN1, 50 mg/kg BID orally from time of infection
# Description: (§1) AG129 mice were inoculated i.v. with EDEN1 (7×10^7 pfu), EDEN2 (1×10^8 pfu) or S221 (2×10^4 pfu) for non-lethal infection. For the ADE infection (lethal), mice were pre-injected i.p. with 50 μg (for EDEN1 and EDEN2) or 10 μg (for S221) 4G2 Ab one day prior to infection. (A) Mouse survival rate was monitored by day 10 pi. (B) Blood samples were collected on days 1-8 pi and mixed serum from each group were subjected to real-time RT-PCR to obtain the average viral genome copy numbers. (C) Serum levels of TNFα and IL-6 were measured by ELISA assay. The numbers of mice per group are 6 (EDEN1) or 5 (EDEN2 and S221).
# (§2) AG129 mice were pre-injected i.p. with 50 μg (for EDEN1 and EDEN2) or 10 μg (for S221) 4G2 Ab followed by next day inoculation i.v. with EDEN1 (7×10^7 pfu), EDEN2 (1×10^8 pfu) or S221 (2×10^4 pfu). […] (A) Mouse survival rate was monitored by day 10 pi. (B) Blood samples were collected on day 1-4 pi and mixed serum from each group were subjected to real-time RT PCR to obtain the average viral genome copy numbers (left panels). […] A P value less than 0.05 was considered significant (*P<0.05). The number of mice per group is 5.
# (§3) AG129 mice were pre-injected i.p. with 4G2 Ab followed by next day inoculation i.v. with EDEN1, EDEN2 or S221 as described above. […] (A) Mouse survival rate was monitored by day 10 pi. […]
# EDEN2 = test: as above; format: in vivo; conditions: EDEN2, 50 mg/kg BID orally from time of infection
# Description: as §1, §2, §3
smiles,measurement,setting,value
CCCC(=O)O[C@H]1CN2CC[C@H](O)[C@@H]2[C@@H](O)[C@@H]1O [celgosivir],sensitivity to celgosivir relative to control strains,"[1]; all other 15 CELADEN strains, HuH-7, celgosivir 3 mM",better sensitivity than EDEN1 or S221
same,sensitivity to celgosivir relative to control strains,"[1]; strain DENV1 #025, HuH-7, celgosivir 3 mM",less sensitive to celgosivir than EDEN1
same,protection from lethal infection (survival),EDEN1,completely protected mice from lethal infection
same,protection from lethal infection (survival),EDEN2,completely protected mice from lethal infection
